How the values were obtained:
[1] = organism: Homo sapiens; assay: Selectivity index, ratio of Ki for displacement of [3H]DAMGO from rat MOR expressed in CHO cell membranes to Ki for displacement of [3H]U69593 from human KOR expressed in CHO cell membranes
[2] = molecular target: Mu-type opioid receptor (Rattus norvegicus) (UniProt P33535); assay: Agonist activity at rat MOR expressed in CHO cell membranes assessed as maximal activity after 1 hr by [35S]GTPgammaS binding assay relative to control; conditions: Cell membrane, filed as agonist

The chains behind the UniProt entries cited, without tags or fusion partners.
UniProt P33535, whole entry: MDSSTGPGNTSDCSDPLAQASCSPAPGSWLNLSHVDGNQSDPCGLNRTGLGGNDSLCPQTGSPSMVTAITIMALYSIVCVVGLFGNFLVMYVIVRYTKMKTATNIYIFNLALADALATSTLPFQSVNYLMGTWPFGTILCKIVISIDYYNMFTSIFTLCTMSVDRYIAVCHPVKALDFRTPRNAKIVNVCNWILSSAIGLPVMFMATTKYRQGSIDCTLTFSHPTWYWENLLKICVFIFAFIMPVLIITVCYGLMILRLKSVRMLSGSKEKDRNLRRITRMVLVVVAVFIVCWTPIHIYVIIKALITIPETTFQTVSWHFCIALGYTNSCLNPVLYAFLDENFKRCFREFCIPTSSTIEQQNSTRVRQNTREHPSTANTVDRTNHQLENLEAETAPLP

Row | Structure (SMILES) | Ratio Ki [1] | Emax [2]
1 | COc1ccc2c3c1O[C@H]1[C@@]4(OC)CC[C@@]5(C[C@@]4(C)[C@H](O)c4ccc(C(C)C)cc4)[C@@H](C2)N(CC2CC2)CC[C@]315 | 0.3 | –
2 | COc1cccc(C(=O)[C@]2(C)C[C@@]34CC[C@]2(OC)[C@@H]2Oc5c(OC)ccc6c5[C@@]23CCN(CC2CC2)[C@@H]4C6)c1 | – | 249%

— ChEMBL document CHEMBL5137076, “SLL-627 Is a Highly Selective and Potent κ Opioid Receptor (KOR) Agonist with an Unexpected Nonreduction in Locomotor Activity” (2022)
